US20250051346A1 (priority 2021, published 2025)

Sequences of proteins named here, by UniProt entry; tags and fusion partners are left off. Residues count along the entry.
UniProt P28335, whole entry I156V/N158S/I160V, looked up: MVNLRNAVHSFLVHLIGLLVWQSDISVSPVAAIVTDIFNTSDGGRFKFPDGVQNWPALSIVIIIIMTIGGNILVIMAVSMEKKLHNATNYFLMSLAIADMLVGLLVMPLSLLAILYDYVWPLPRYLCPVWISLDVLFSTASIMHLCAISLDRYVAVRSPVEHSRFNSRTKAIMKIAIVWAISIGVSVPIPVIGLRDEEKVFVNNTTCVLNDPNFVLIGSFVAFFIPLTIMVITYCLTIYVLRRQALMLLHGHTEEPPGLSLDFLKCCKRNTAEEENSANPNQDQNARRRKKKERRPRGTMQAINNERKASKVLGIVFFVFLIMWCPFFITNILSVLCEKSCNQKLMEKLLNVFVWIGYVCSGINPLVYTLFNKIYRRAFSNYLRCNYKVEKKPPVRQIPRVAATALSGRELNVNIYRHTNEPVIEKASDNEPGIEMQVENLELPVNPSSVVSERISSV
UniProt P28335, 33-458 I156V/N158S/I160V limits assumed: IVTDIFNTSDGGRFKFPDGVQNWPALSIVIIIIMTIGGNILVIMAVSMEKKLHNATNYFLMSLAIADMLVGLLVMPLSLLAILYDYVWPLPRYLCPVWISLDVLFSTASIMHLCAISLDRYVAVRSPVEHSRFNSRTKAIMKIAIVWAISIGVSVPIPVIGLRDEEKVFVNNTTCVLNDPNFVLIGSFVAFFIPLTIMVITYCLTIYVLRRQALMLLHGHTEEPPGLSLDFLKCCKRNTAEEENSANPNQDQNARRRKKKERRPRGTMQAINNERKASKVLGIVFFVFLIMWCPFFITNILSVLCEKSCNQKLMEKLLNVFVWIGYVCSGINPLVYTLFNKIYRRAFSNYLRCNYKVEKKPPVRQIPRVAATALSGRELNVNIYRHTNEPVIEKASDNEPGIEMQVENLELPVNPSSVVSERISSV

Assays:
[1] = target: human recombinant 5-HT2C edited receptor (accession number AAF35842.1) (Homo sapiens, UniProt P28335, I156V/N158S/I160V); assay: Serotonin 5-HT2C in vitro cellular IPOne agonism assay; conditions: read-out: 5HT2C IPONE AGONISM ACTIVITY, CHO-K1 cells, 60 min
[2] = target: 5-HT2C edited (accession number AAF35842.1) (Homo sapiens, UniProt P28335, I156V/I160V/N158S); assay: Serotonin 5-HT2C in vitro radioligand binding competition assay; conditions: read-out: 5HT2C RADIOLIGAND BINIDNG ACTIVITY, [3H]-DOI radiotracer, membrane extracts

SMILES	EC50 ([1]; benzofurans) [µM]	IC50 ([2]; benzofurans) [µM]	EC50 ([1]; benzothiophenes) [µM]	IC50 ([2]; benzothiophenes) [µM]
FC(F)(F)CN1CCCc2oc3ccccc3c2C1 [Compound 13, 2-(2,2,2-trifluoroethyl)-2,3,4,5-tetrahydro-1H-benzofuro[3,2-c]azepine]	> 10	> 10	–	–
FC(F)(F)Oc1ccc2c3c(sc2c1)CCNCC3 [Compound 66, 8-(trifluoromethoxy)-2,3,4,5-tetrahydro-1H-benzo[4,5]thieno[2,3-d]azepine]	–	–	0.01 to 0.1	0.01 to 0.1
CN1CCc2oc3ccccc3c2CC1 [Compound 30, 3-methyl-2,3,4,5-tetrahydro-1H-benzofuro[2,3-d]azepine]	0.01 to 0.1	0.01 to 0.1	–	–
CN1CCc2oc3cccc(F)c3c2CC1 [Compound 3, 10-fluoro-3-methyl-2,3,4,5-tetrahydro-1H-benzofuro[2,3-d]azepine]	0.01 to 0.1	0.01 to 0.1	–	–
COc1cccc2oc3c(c12)CNCCC3 [Compound 18, 10-methoxy-2,3,4,5-tetrahydro-1H-benzofuro[3,2-c]azepine]	0.101 to 1	0.101 to 1	–	–
CN1CCc2sc3cc(OC(F)(F)F)ccc3c2CC1 [Compound 75, 3-methyl-8-(trifluoromethoxy)-2,3,4,5-tetrahydro-1H-benzo[4,5]thieno[2,3-d]azepine]	–	–	0.101 to 1	–
FC(F)(F)CN1CCc2sc3ccccc3c2CC1 [Compound 69, 3-(2,2,2-trifluoroethyl)-2,3,4,5-tetrahydro-1H-benzo[4,5]thieno[2,3-d]azepine]	–	–	1 to 10	1 to 10
c1ccc2c3c(sc2c1)CCN(C1CCC1)CC3 [Compound 73, 3-cyclobutyl-2,3,4,5-tetrahydro-1H-benzo[4,5]thieno[2,3-d]azepine]	–	–	0.101 to 1	–
c1ccc2c3c(oc2c1)CCN(C1CCC1)CC3 [Compound 28, 3-cyclobutyl-2,3,4,5-tetrahydro-1H-benzofuro[2,3-d]azepine]	0.101 to 1	1 to 10	–	–
Fc1ccc2c3c(oc2c1)CCCNC3 [Compound 6, 8-fluoro-2,3,4,5-tetrahydro-1H-benzofuro[3,2-c]azepine]	1 to 10	1 to 10	–	–
FC(F)(F)Oc1ccc2c3c(oc2c1)CCNCC3 [Compound 44, 8-(trifluoromethoxy)-2,3,4,5-tetrahydro-1H-benzofuro[2,3-d]azepine]	–	0.101 to 1	–	–
Oc1ccc2c3c(sc2c1)CCNCC3 [Compound 80, 2,3,4,5-tetrahydro-1H-benzo[4,5]thieno[2,3-d]azepin-8-ol]	–	–	0.01 to 0.1	0.01 to 0.1
CN1CCc2oc3cc(C(F)(F)F)ccc3c2CC1 [Compound 39, 3-methyl-8-(trifluoromethyl)-2,3,4,5-tetrahydro-1H-benzofuro[2,3-d]azepine]	1 to 10	1 to 10	–	–
CN1CCCc2oc3ccccc3c2C1 [Compound 21, 2-methyl-2,3,4,5-tetrahydro-1H-benzofuro[3,2-c]azepine]	1 to 10	1 to 10	–	–
CN1CCc2sc3ccccc3c2CC1 [Compound 72, 3-methyl-2,3,4,5-tetrahydro-1H-benzo[4,5]thieno[2,3-d]azepine]	–	–	< 0.01	< 0.01
c1ccc2c3c(oc2c1)CCCN(C1CCC1)C3 [Compound 20, 2-cyclobutyl-2,3,4,5-tetrahydro-1H-benzofuro[3,2-c]azepine]	1 to 10	1 to 10	–	–
c1ccc2c3c(oc2c1)CCCNC3 [Compound 22, 2,3,4,5-tetrahydro-1H-benzofuro[3,2-c]azepine]	1 to 10	1 to 10	–	–
Fc1cccc2oc3c(c12)CCN(C1CCC1)CC3 [Compound 2, 3-cyclobutyl-10-fluoro-2,3,4,5-tetrahydro-1H-benzofuro[2,3-d]azepine]	1 to 10	1 to 10	–	–
COc1ccc2c3c(oc2c1)CCN(C)CC3 [Compound 26, 8-methoxy-3-methyl-2,3,4,5-tetrahydro-1H-benzofuro[2,3-d]azepine]	1 to 10	0.101 to 1	–	–
CN1CCc2sc3cc(F)ccc3c2CC1 [Compound 33, 8-fluoro-3-methyl-2,3,4,5-tetrahydro-1H-benzo[4,5]thieno[2,3-d]azepine]	–	–	< 0.01	< 0.01
COc1ccc2c3c(oc2c1)CCCN(C)C3 [Compound 17, 8-methoxy-2-methyl-2,3,4,5-tetrahydro-1H-benzofuro[3,2-c]azepine]	1 to 10	1 to 10	–	–
c1ccc(COc2cccc3oc4c(c23)CNCCC4)cc1 [Compound 51, 10-(benzyloxy)-2,3,4,5-tetrahydro-1H-benzofuro[3,2-c]azepine]	> 10	1 to 10	–	–
FC(F)(F)Oc1ccc2c3c(oc2c1)CCCNC3 [Compound 49, 8-(trifluoromethoxy)-2,3,4,5-tetrahydro-1H-benzofuro[3,2-c]azepine]	1 to 10	0.101 to 1	–	–

SMILES	EC50 ([1]; benzofurans) [µM]	IC50 ([2]; benzofurans) [µM]	EC50 ([1]; benzothiophenes) [µM]	IC50 ([2]; benzothiophenes) [µM]
c1ccc2c3c(sc2c1)CCNCC3 [Compound 65, 2,3,4,5-tetrahydro-1H-benzo[4,5]thieno[2,3-d]azepine]	–	–	< 0.01	< 0.01
COc1ccc2c3c(sc2c1)CCN(C)CC3 [Compound 34, 8-methoxy-3-methyl-2,3,4,5-tetrahydro-1H-benzo[4,5]thieno[2,3-d]azepine]	–	–	0.101 to 1	–
c1ccc2c3c(oc2c1)CCNCC3 [Compound 31, 2,3,4,5-tetrahydro-1H-benzofuro[2,3-d]azepine]	0.01 to 0.1	0.01 to 0.1	–	–
c1ccc(COc2ccc3c4c(oc3c2)CCCNC4)cc1 [Compound 50, 8-(benzyloxy)-2,3,4,5-tetrahydro-1H-benzofuro[3,2-c]azepine]	> 10	0.101 to 1	–	–
COc1cccc2oc3c(c12)CCNCC3 [Compound 16, 10-methoxy-2,3,4,5-tetrahydro-1H-benzofuro[2,3-d]azepine]	< 0.01	< 0.01	–	–
CN1CCCc2oc3cc(C(F)(F)F)ccc3c2C1 [Compound 52, 2-methyl-8-(trifluoromethyl)-2,3,4,5-tetrahydro-1H-benzofuro[3,2-c]azepine]	> 10	1 to 10	–	–
FC(F)(F)Oc1cccc2sc3c(c12)CCNCC3 [Compound 67, 10-(trifluoromethoxy)-2,3,4,5-tetrahydro-1H-benzo[4,5]thieno[2,3-d]azepine]	–	–	< 0.01	< 0.01
CN1CCc2oc3cc(F)ccc3c2CC1 [Compound 23, 8-fluoro-3-methyl-2,3,4,5-tetrahydro-1H-benzofuro[2,3-d]azepine]	0.01 to 0.1	0.01 to 0.1	–	–
CN1CCCc2oc3cccc(OCc4ccccc4)c3c2C1 [Compound 55, 10-(benzyloxy)-2-methyl-2,3,4,5-tetrahydro-1H-benzofuro[3,2-c]azepine]	> 10	0.01 to 0.1	–	–
Fc1cccc2oc3c(c12)CCNCC3 [Compound 10, 10-fluoro-2,3,4,5-tetrahydro-1H-benzofuro[2,3-d]azepine]	0.01 to 0.1	0.01 to 0.1	–	–
COc1ccc2c3c(oc2c1)CCCNC3 [Compound 19, 8-methoxy-2,3,4,5-tetrahydro-1H-benzofuro[3,2-c]azepine]	1 to 10	1 to 10	–	–
CN1CCCc2oc3cccc(F)c3c2C1 [Compound 4, 10-fluoro-2-methyl-2,3,4,5-tetrahydro-1H-benzofuro[3,2-c]azepine]	> 10	1 to 10	–	–
FC(F)(F)Oc1cccc2sc3c(c12)CCN(C1CCC1)CC3 [Compound 68, 3-cyclobutyl-10-(trifluoromethoxy)-2,3,4,5-tetrahydro-1H-benzo[4,5]thieno[2,3-d]azepine]	–	–	0.101 to 1	0.101 to 1
CN1CCc2oc3cc(OC(F)(F)F)ccc3c2CC1 [Compound 40, 3-methyl-8-(trifluoromethoxy)-2,3,4,5-tetrahydro-1H-benzofuro[2,3-d]azepine]	0.101 to 1	1 to 10	–	–
COc1ccc2c3c(oc2c1)CCCN(C1CCC1)C3 [Compound 12, 2-cyclobutyl-8-methoxy-2,3,4,5-tetrahydro-1H-benzofuro[3,2-c]azepine]	> 10	> 10	–	–
Fc1ccc2c3c(oc2c1)CCNCC3 [Compound 24, 8-fluoro-2,3,4,5-tetrahydro-1H-benzofuro[2,3-d]azepine]	0.01 to 0.1	0.01 to 0.1	–	–
COc1ccc2c3c(sc2c1)CCN(C1CCC1)CC3 [Compound 74, 3-cyclobutyl-8-methoxy-2,3,4,5-tetrahydro-1H-benzo[4,5]thieno[2,3-d]azepine]	–	–	0.101 to 1	1 to 10
c1ccc(COc2ccc3c4c(oc3c2)CCNCC4)cc1 [Compound 45, 8-(benzyloxy)-2,3,4,5-tetrahydro-1H-benzofuro[2,3-d]azepine]	0.101 to 1	0.101 to 1	–	–
COc1ccc2c3c(sc2c1)CCN(CC(F)(F)F)CC3 [Compound 70, 8-methoxy-3-(2,2,2-trifluoroethyl)-2,3,4,5-tetrahydro-1H-benzo[4,5]thieno[2,3-d]azepine]	–	–	1 to 10	1 to 10
CN1CCc2oc3cc(OCc4ccccc4)ccc3c2CC1 [Compound 41, 8-(benzyloxy)-3-methyl-2,3,4,5-tetrahydro-1H-benzofuro[2,3-d]azepine]	0.101 to 1	–	–	–
COc1ccc2c3c(oc2c1)CCN(C1CCC1)CC3 [Compound 25, 3-cyclobutyl-8-methoxy-2,3,4,5-tetrahydro-1H-benzofuro[2,3-d]azepine]	> 10	> 10	–	–
COc1cccc2oc3c(c12)CN(C1CCC1)CCC3 [Compound 14, 2-cyclobutyl-10-methoxy-2,3,4,5-tetrahydro-1H-benzofuro[3,2-c]azepine]	1 to 10	–	–	–
CN1CCCc2oc3cc(OCc4ccccc4)ccc3c2C1 [Compound 54, 8-(benzyloxy)-2-methyl-2,3,4,5-tetrahydro-1H-benzofuro[3,2-c]azepine]	> 10	–	–	–

Read-outs that look alike come from different tables or passages of the source.
